Drawing on patent publication US4371535A, “Method of and composition for delivering 5-fluorouracil to tumors” (priority 1976, dated 1983), this text covers LD50 for 1 compound.

This data set in a line: in vivo. The settings on record: mouse, po. On the procedure: Mice (ddy strain, male, 5 weeks old) are reared for one week, then fasted for 15 hours and thereafter orally given the compound forcibly. After the administration, the mice are placed into plastic cages, with free access to a solid diet and water, and checked for mortality 3 days, one week, 2 weeks and 3 weeks later. LD50 is calculated according to the method of Litchfield and Wilcoxon. As a control drug, 1-(2-tetrahydrofuryl)-5-fluorouracil is used.

A word on the LD50: it is the dose expected to kill half of the subjects tested. In turn, `O=c1[nH]c(=O)n(C2CCCO2)cc1F` (stereo not shown) [1-(2-tetrahydrofuryl)-5-fluorouracil, reference compound] returned an LD50 at 72 h of 1000 mg/kg, an LD50 at 168 h of 960 mg/kg, a median lethal dose (LD50) at 336 h of 900 mg/kg and an LD50 at 504 h of 800 mg/kg.
